Test results taken from patent publication US5599839A, “Antiviral composition” (The United States of America as represented by the …, priority 1995, dated 1997).

How the values were obtained:
[1] = system: CEM-SS cells; type: cell-based, human; conditions: 500 nM
Text: Cancer Inst. […] Cancer Inst. 81:1254-1258, (1989)] but with several modifications.
Philadelphia: Lippincott, 1988, pp. 305-317; Weislow et al.: J. Nat. Cancer Inst. […] Cancer Inst. 81:1254-1258, (1989)].

[2] = system: protein kinase C; conditions: in vitro
Method: Incubation was for 30 min at 37° C., after which the cells were chilled, an aliquot removed to determine total counts, and bound counts determined by filtration.

[3] = system: CEM-SS cells
[4] = system: C3H10T1/2 cells; experiment: Release of [3H]arachidonic acid metabolites in C3H10T1/2 cells; type: cell-based
Text: Well-characterized biological responses to the phorbol esters include inhibition of binding of epidermal growth factor and release of arachidonic acid metabolites [Dell'Aquila et al.: Cancer Res. 48:3702-3708, (1988)].

[5] = system: CEM-SS cells; conditions: 0-5 days of incubation, FIG. 4
Method: Trypan blue dye exclusion was employed for secondary evaluation of drug toxicity and antiviral protection over time. A 50 μl aliquot of cells was removed from each test well and mixed with 100 μl of 0.4% trypan blue. The percentage of viable cells was determined microscopically by direct hemocytometer counts.

| SMILES | Cytostatic effect [1] | Stimulation of protein kinase C activity [2] | Cell proliferation [3] | Cytopathic effects of HIV-1 infection [3] | Syncytium formation (cellular morphology at higher magnification) ([3]; 1 μM) | Macroscopic morphology of cell pellets, uninfected versus HIV-1-infected ([3]; 10 μg/ml, 6 days) | Pellet size and percentage of viable cells, infected versus uninfected cultures ([3]; after prostratin treatment) | Release of arachidonic acid metabolites [4] | Anti-HIV activity over time, trypan blue end-point [5] |
| --- | --- | --- | --- | --- | --- | --- | --- | --- | --- |
| CCCC(=O)O[C@@H]1[C@@H](C)[C@@]2(O)[C@@H](C=C(CO)C[C@]3(O)C(=O)C(C)=C[C@@H]23)[C@@H]2C(C)(C)[C@]12OC(=O)CCC [PDBu, phorbol 12,13-dibutyrate, reference compound] | cytostatic | stimulated protein kinase C (PKC) activity | – | – | – | – | – | – | – |
| CC(=O)O[C@@]12C[C@@H](C)[C@@]3(O)[C@@H](C=C(CO)C[C@]4(O)C(=O)C(C)=C[C@@H]34)[C@@H]1C2(C)C [prostratin] | – | stimulated protein kinase C (PKC) activity | inhibited cell proliferation | block totally | syncytium formation was completely abolished | virtually identical | similar | induces both of these responses | strikingly apparent after three or more days |
